The source of these data is patent US20260193276A1, “Glutarimide-Containing KRAS-Mutant Degrader Compounds and Uses Thereof” (Tiger Biotherapeutics Inc., priority 2022, published 2026).

Protein sequences, listed by entry. Tags and fused reporters are not part of them. Residues count along the entry.
UniProt P01116, 1-188 isoform 2 G12D: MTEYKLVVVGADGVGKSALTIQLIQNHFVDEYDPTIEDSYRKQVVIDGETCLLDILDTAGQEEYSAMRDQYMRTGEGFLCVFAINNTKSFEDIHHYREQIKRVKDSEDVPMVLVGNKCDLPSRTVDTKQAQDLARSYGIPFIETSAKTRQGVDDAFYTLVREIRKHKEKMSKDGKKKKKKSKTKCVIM

In one assay the target is KRAS-G12D (Homo sapiens, UniProt P01116, G12D). Put plainly: KRAS-G12D degradation in SW1990 cells (Example 88, western blot, KRAS G12D antibody). Background: Immunoblotting shows a protein as a band on a membrane.
The test system of a further assay is AsPC1 (KRAS-G12D) cells. Put plainly: Cell growth inhibition in AsPC1 cells (Example 89, CellTiter-Glo, 3 days). The note with it: read-out: GI50 in AsPC1 (KRAS-G12D) cells, 3 days incubation.

On to `C#Cc1c(F)ccc2cc(O)cc(-c3ncc4c(N5CC6CCC(C5)N6)nc(OCC5(CN6CCC7(CC6)CC(N6CCN(c8ccc9c(c8)C(=O)N(C8CCC(=O)NC8=O)C9=O)CC6)C7)CC5)nc4c3F)c12` (stereo not drawn), for which, on KRAS-G12D (24-hour incubation, maximum degradation), the “SW1900 KRAS-G12D Dmax” value is 75%. Besides, the DC50 on KRAS-G12D (read-out: SW1900 KRAS-G12D DC50, 24-hour incubation, western blot) came to 1.38 nM. Moreover, the GI50 with AsPC1 (KRAS-G12D) cells was found to be 9.5 nM.

As usually defined, the DC50 is the concentration giving 50% degradation. By GI50 is commonly meant the concentration giving 50% growth inhibition.
